The IC50 is the concentration that gives 50% inhibition.

Amino acid sequences for entries named in this document (tags omitted).
UniProt P30968, whole entry: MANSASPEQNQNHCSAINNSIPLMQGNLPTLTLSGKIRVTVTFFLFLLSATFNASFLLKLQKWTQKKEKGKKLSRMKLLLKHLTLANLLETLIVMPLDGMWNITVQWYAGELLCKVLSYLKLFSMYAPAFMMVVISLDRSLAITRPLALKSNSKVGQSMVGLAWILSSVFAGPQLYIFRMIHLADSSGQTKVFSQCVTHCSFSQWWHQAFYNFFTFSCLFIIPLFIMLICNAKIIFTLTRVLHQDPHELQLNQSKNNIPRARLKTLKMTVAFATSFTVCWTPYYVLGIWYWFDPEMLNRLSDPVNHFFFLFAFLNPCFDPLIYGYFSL
UniProt P32236, whole entry: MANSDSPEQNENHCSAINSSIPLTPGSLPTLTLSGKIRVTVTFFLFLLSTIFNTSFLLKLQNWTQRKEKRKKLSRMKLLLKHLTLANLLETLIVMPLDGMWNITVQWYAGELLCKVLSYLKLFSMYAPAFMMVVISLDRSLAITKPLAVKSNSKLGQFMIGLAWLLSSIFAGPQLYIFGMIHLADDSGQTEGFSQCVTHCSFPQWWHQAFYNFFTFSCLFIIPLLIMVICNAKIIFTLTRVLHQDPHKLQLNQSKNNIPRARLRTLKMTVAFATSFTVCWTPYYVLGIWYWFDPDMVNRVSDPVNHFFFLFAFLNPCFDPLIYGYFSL
UniProt P30969, whole entry: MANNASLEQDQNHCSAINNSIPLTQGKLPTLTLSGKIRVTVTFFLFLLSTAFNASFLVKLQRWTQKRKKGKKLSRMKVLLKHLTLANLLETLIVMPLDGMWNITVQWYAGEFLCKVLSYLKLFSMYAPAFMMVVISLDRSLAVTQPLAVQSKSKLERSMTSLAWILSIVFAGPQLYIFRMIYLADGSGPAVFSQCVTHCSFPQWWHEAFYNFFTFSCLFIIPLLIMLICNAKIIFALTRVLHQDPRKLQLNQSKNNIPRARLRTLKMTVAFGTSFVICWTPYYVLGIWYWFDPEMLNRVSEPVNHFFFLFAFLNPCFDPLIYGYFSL
UniProt Q01776, whole entry: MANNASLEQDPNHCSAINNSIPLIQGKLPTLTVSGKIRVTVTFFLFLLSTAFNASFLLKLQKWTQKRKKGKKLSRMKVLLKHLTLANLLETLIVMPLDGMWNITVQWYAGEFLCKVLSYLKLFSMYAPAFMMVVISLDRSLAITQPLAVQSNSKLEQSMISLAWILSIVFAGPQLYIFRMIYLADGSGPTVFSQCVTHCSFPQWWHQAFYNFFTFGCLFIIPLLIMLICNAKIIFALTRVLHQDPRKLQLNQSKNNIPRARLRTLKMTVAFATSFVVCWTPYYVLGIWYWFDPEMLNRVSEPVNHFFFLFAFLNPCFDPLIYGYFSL

Consider three compounds from patent US7101878B1 (Agouron Pharmaceuticals, Inc., priority 1998, dated 2006).

Each structure is given as a SMILES string.

In one experiment the target is human GnRH receptor (Homo sapiens, UniProt P30968). The experiment in a line: Radioligand binding, 125I-GnRH-A displacement, membranes of HEK 293 cells with human GnRH receptor. The conditions noted are these: read-out: hGnRH IC50.
For the next experiment, the target named is hGnRH receptor (Homo sapiens, UniProt P30968). Put plainly: Total inositol phosphates measurement, 293 cells containing the hGnRH receptor. In kind it is cell-based. The conditions noted are these: no species or readout annotated.
In another experiment the target is bovine GnRH receptor (Bos taurus, UniProt P32236). Put plainly: Radioligand binding, 125I-GnRH-A, bovine pituitary membranes. The note with it: read-out: bGnRH IC50.
For another experiment, the target named is rat GnRH receptor (Rattus norvegicus, UniProt P30969). Put plainly: Radioligand binding, 125I-GnRH-A, rat pituitary membranes. The note with it: read-out: rGnRH IC50.
Another experiment addresses mouse GnRH receptor (Mus musculus, UniProt Q01776). Put plainly: Radioligand binding, 125I-GnRH-A, 293 cells expressing mouse GnRH receptors. The note with it: read-out: mGnRH IC50.

For `Cc1cc2c(cc1Cc1ccc(C(=O)NCc3cccc(CNC(=N)NC(=O)NCC4CCCO4)c3)o1)C(C)(C)CCC2(C)C` (centres unmarked), the IC50 at human GnRH receptor was 0.21 µM.
Consider `Cc1cc2c(cc1Cc1ccc(C(=O)NCCCCNC(=N)N)o1)C(C)(C)CCC2(C)C`, for which the IC50 at human GnRH receptor worked out at 0.92 µM; on bovine GnRH receptor, 3.34 µM; at rat GnRH receptor, 0.54 µM; on mouse GnRH receptor, 1.2 µM. Further, at hGnRH receptor, the GnRH functional result is “Antag- onist”.
With `Cc1cc2c(cc1Cc1ccc(C(=O)Nc3ccc(C(=N)N)cc3)o1)C(C)(C)CCC2(C)C`, the IC50 stood at 6 µM on human GnRH receptor and 5.13 µM at rat GnRH receptor.
